Data on one compound can be found in ChEMBL document CHEMBL3763121, “Synthesis, biological evaluation and structural analysis of novel peripherally active morphiceptin analogs” (Bioorg Med Chem, 2016).

The chains behind the UniProt entries cited, without tags or fusion partners.
UniProt P35372, whole entry: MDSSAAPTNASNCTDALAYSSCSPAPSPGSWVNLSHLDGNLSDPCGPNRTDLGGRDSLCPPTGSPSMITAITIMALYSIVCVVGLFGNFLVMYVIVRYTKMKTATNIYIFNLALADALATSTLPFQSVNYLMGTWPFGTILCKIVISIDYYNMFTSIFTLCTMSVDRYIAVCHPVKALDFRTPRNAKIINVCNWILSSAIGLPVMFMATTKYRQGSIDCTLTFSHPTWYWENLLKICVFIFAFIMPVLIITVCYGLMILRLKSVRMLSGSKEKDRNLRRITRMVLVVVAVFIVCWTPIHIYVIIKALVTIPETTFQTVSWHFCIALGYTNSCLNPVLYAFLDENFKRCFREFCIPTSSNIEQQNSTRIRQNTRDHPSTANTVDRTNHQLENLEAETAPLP

The target in the assay is Mu-type opioid receptor (Homo sapiens, UniProt P35372). Kind of assay: Agonist activity at human recombinant MOR expressed in CHO cells by calcium mobilization assay. The class given is functional, cell-based.

Broadly, the EC50 is the concentration at which the effect is half-maximal. Take `C[C@@H](NC(=O)[C@@H](N)Cc1ccc(O)cc1)C(=O)N[C@@H](Cc1ccccc1)C(=O)NCC(=O)N[C@@H](Cc1ccc(O)cc1)C(=O)N1CCC[C@H]1C(=O)N[C@@H](CO)C(N)=O`: the EC50 was 3.98 nM.
